Source: PubChem BioAssay
This is a sample that favours compounds with a hit; in the whole collection about 3.7% have one here.
Nrf2 inh: inhibitors of Nrf2 signaling | A549 ARE-Fluc reporter, luciferase luminescence, 18-24 h | Potency, µM (highest dose often 46 µM), inactives show at the highest dose activity change, negative = inhibition, usual class: inhibitors | hit rate 2.1% among 360,000; note: potency is the fitted concentration of half-maximal effect; % is set by controls: 0 for no effect and ±100 for the full control effect; nearly all actives have a fitted effect of over 60% in size
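Quantitative HTS in A549 cells stably bearing an antioxidant response element-firefly luciferase construct. Inhibition of Nrf2-driven transcription was scored by luminescence after 18-24 h of compound exposure at 37 °C.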
ClpP mod: qHTS Assay for Activators of ClpP. ATP-dependent Clp protease proteolytic subunit (Bacillus subtilis (strain 168)), P80244. purified B. subtilis ClpP, FRET peptide cleavage, 20 min. Potency, µM (series often up to 57.5 µM), without a hit: at the top dose activity change, negative = active. hit rate 1.9% among 340,000. AID 651965, 2013; active = well fitted falling curve with a large enough effect; inconclusive = small, poorly fitted or top-dose-only effect; inactive = no such curve, though single readings can be large or run the other way; note: potency is the fitted concentration of half-maximal effect; the source files actives as falling curves though it sought activators and does not explain the sign; nearly all actives have a fitted effect of over 65% in size
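Buffer: 100 mM Tris/HCl pH8, 100 mM KCl, 0.05% low protease BSA, 2.5% glycerol, 0.01% Tween-20. ClpP 10 microg/mL final; 20 min RT; delta FRET normalized to ADEP and DMSO controls.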
TCR activator: activators of T cell receptors; primary human leukocytes, anti-CD3, IL-2 HTRF, 48 h; Potency, µM (highest dose often 9.22 µM), for inactives: at the highest dose activation of IL-2 secretion, most hits filed as activators; 330,000 tested, under 10 active; AID 504894; note: % of control where 0% means no effect
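Activity was scored as IL-2 release from primary human leukocytes given only a TCR signal (a-CD3 beads) plus compound for 48 hr. Detection used a two-antibody HTRF format read at 665nm.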
A549 tox: A549 cytotoxicity, counter-screen for Nrf2 inhibitors; A549 ARE-Fluc cells, CellTiter-Fluor viability, 18-24 h; Potency, µM (top dose mostly 46 µM), inactives show at the top dose activity change, negative = cytotoxicity, usual class: inhibitors; hit rate 0.16% among 390,000; AID 504648; note: potency is the fitted concentration of half-maximal effect; % is set by controls: 0 for no effect and ±100 for the full control effect
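Cytotoxicity counterscreen: CellTiter-Fluor fluorescence was measured in A549 ARE_Fluc cells after 18-24 h of compound exposure in a concentration series. The subsequent BugLite luminescent read reports ARE-luciferase activity.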
Nrf2 activator: Nrf2 pathway activation; AID 624171; hit rate 0.31% among 410,000; AREc32 ARE-luciferase reporter (MCF7-derived line), luminescence, 24 h; Potency, µM (doses to about 46.1 µM), for inactives: at the highest dose activation, usual class: activators; note: potency is the fitted concentration of half-maximal effect; % of control where 0% means no effect; nearly all actives have a fitted effect of over 65% in size
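Steps: seed AREc32_Fluc cells (1000/well, 5% FBS OPTI-MEM); incubate overnight at 37 deg C; add 23 nL compound; incubate 24 hr; add Steady-Glo; hold 30 min RT; read luminescence.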
miR-21 FLuc: raises the signal of a miR-21 reporter; HeLa miR-21 FLuc reporter, luciferase, 48 h; Potency, µM (highest dose often 38.3 µM), for inactives: at the highest dose reporter change, positive = more light; 340,000 tested, under 10 active; active = well fitted rising curve with a large enough effect; inconclusive = small, poorly fitted or top-dose-only effect; inactive = no such curve, though single readings can be large or run the other way;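 also: % of control where 0% means no effect; miR-21 action dims this reporter so a rising signal means less miR-21 action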
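Compounds were titrated across several concentrations (up to approximately 40 uM) and incubated 48 hours with HeLa miR-21-FLuc reporter cells (miR-21 target sequence downstream of FLuc, endogenous miR-21). Readout was firefly luciferase luminescence after lytic detection reagent.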
Active calls of the source: *; [ ] = remark or other dose. Unless noted, calls come from the whole dose curve; as a rule, active = well fitted curve in the direction sought with a large enough effect; inconclusive = small, poorly fitted or top-dose-only effect, or another doubt; inactive = no such curve, though single readings can be large; an effect the other way counts as inactive or inconclusive.

How did COC(=O)C(=Cc1ccncc1)c1cccc2ccccc12 do in these assays?
ClpP mod: -2%; Nrf2 activator: -2%

What do the screens show for `COc1ccc(OCCSc2nc3ccccc3c(=O)[nH]2)cc1`?
Nrf2 inh: 4.1µM*; ClpP mod: -8%; TCR activator: 1%; A549 tox: -9%; Nrf2 activator: 3%; miR-21 FLuc: -24%

Results for COc1cccc(OCCSc2nc3ccccc3c(=O)[nH]2)c1 ?
Nrf2 inh: -30%; TCR activator: 5%; A549 tox: -1%; Nrf2 activator: 0%; miR-21 FLuc: -5%

How did CC(C)CC(=O)Nc1ccccc1OCc1cc(=O)n2ccccc2n1 do in these assays?
ClpP mod: inconclusive; A549 tox: -7%; Nrf2 activator: 0%; miR-21 FLuc: -1%

How did CCC(C)Cn1c(/C=C/c2ccccc2)nc2ccccc21 (stereo unspecified) do in these assays?
Nrf2 inh: inconclusive; ClpP mod: 4%; A549 tox: -1%; Nrf2 activator: 16%; miR-21 FLuc: -9%

How did O=c1cc(-c2cccc(Br)c2)oc2cccc(O)c12 do in these assays?
Nrf2 inh: 23%; ClpP mod: 0%; TCR activator: 3%; A549 tox: -1%; Nrf2 activator: 2µM*; miR-21 FLuc: -3%

What do the screens show for `O=c1cc(-c2ccccc2)oc2cccc(O)c12`?
Nrf2 inh: 4%; ClpP mod: 2%; TCR activator: -8%; A549 tox: 3%; Nrf2 activator: inconclusive

Results for COc1cccc(-n2cc(C(=O)NCCc3ccc(C)cc3)c3ccccc3c2=O)c1 ?
Nrf2 inh: -4%; ClpP mod: -21%; A549 tox: -4%; Nrf2 activator: 0%; miR-21 FLuc: -1%

How did COc1ccc(-n2cc(C(=O)NCCc3ccc(C)cc3)c3ccccc3c2=O)cc1 do in these assays?
Nrf2 inh: 18µM*; ClpP mod: -23%; A549 tox: -2%; Nrf2 activator: 4%; miR-21 FLuc: 12%

How did COc1ccc(CCNC(=O)c2coc3ccccc3c2=O)cc1 do in these assays?
Nrf2 inh: 13µM*; TCR activator: -11%; A549 tox: -7%; Nrf2 activator: 0%; miR-21 FLuc: 12%

How did Cc1cc(C(=O)COC(=O)c2nn(C)c(=O)c3ccccc23)c(C)n1C do in these assays?
Nrf2 inh: 11%; TCR activator: 3%; A549 tox: 0%; Nrf2 activator: 5%

How did Oc1ccc(C[C@@H](CN2CCC[C@@H]2CN2C(=S)NC[C@@H]2Cc2ccccc2)N2C[C@H](Cc3ccccc3)N(CCc3ccccc3)C2=S)cc1 do in these assays?
ClpP mod: -2%; Nrf2 activator: 4%

How did CC(C)C[C@@H](CN1CCCC1CN1C(=S)NC[C@@H]1Cc1ccc(O)cc1)N1C[C@H](Cc2ccc(O)cc2)N(CC2CCCCCC2)C1=S (stereo partly specified) do in these assays?
Nrf2 inh: 21µM*; ClpP mod: 0%; TCR activator: 16%; A549 tox: -7%; Nrf2 activator: -3%

Results for Oc1ccc(C[C@H]2CNC(=S)N2CC2CCCN2C[C@H](Cc2ccccc2)N2C[C@H](Cc3ccc(O)cc3)N(CCc3ccccc3)C2=S)cc1 (stereo partly specified) ?
Nrf2 inh: 15µM*; ClpP mod: -4%; TCR activator: 0%; A549 tox: inconclusive; Nrf2 activator: -1%

What do the screens show for `O=c1ccn(Cc2ccccc2)c(SCc2ccccc2)n1`?
Nrf2 inh: 3%; ClpP mod: 16µM*; TCR activator: -3%; A549 tox: 13%; Nrf2 activator: 0%

Results for Clc1ccc(CSc2nccn2Cc2ccccc2)cc1 ?
Nrf2 inh: inconclusive; ClpP mod: -3%; A549 tox: -9%; Nrf2 activator: 0%; miR-21 FLuc: 1%

How did Cc1ccc(-c2nn3c(C)nnc3c3ccccc23)cc1S(=O)(=O)NC(C)(C)CO do in these assays?
Nrf2 inh: 12µM*; ClpP mod: -14%; TCR activator: -3%; A549 tox: inconclusive; Nrf2 activator: inconclusive; miR-21 FLuc: -22%

Results for COc1cc(OC)cc(C(=O)Nc2ccccc2-c2nnn(CC(=O)Nc3cc(C)on3)n2)c1 ?
Nrf2 inh: inconclusive; TCR activator: -6%; A549 tox: -19%; Nrf2 activator: 0%; miR-21 FLuc: 0%

How did Cc1c(N2C(=O)/C(=C/c3ccccc3)SC2=S)c(=O)n(-c2ccccc2)n1C do in these assays?
Nrf2 inh: -34%; ClpP mod: -2%; TCR activator: -2%; A549 tox: -8%; Nrf2 activator: inconclusive; miR-21 FLuc: 6%

What do the screens show for `Cc1c(N2C(=O)/C(=C/c3ccc(N(C)C)cc3)N(C)C2=S)c(=O)n(-c2ccccc2)n1C`?
Nrf2 inh: -8%; TCR activator: -1%; A549 tox: 23µM*; Nrf2 activator: -1%

Next section; the last 2 above are carried over.
How did Cc1c(N2C(=O)/C(=C/c3ccccc3)SC2=S)c(=O)n(-c2ccccc2)n1C do in these assays?
Nrf2 inh: -34%; ClpP mod: -2%; TCR activator: -2%; A549 tox: -8%; Nrf2 activator: inconclusive; miR-21 FLuc: 6%

What do the screens show for `Cc1c(N2C(=O)/C(=C/c3ccc(N(C)C)cc3)N(C)C2=S)c(=O)n(-c2ccccc2)n1C`?
Nrf2 inh: -8%; TCR activator: -1%; A549 tox: 23µM*; Nrf2 activator: -1%

What do the screens show for `CCOc1nc(-c2ccncc2)nc2ccccc12`?
Nrf2 inh: 3%; ClpP mod: 0%; TCR activator: -2%[46.1 µM]; A549 tox: -7%; Nrf2 activator: 0%; miR-21 FLuc: -11%

How did CCCOc1ccc(-c2nc(OCC)c3ccccc3n2)cc1 do in these assays?
Nrf2 inh: inconclusive; ClpP mod: 32µM*; TCR activator: 2%; A549 tox: 2%; Nrf2 activator: 5%; miR-21 FLuc: -27%

How did CCOC(=O)c1cc(S(=O)(=O)Nc2ccc(OC)c(Cl)c2)[nH]n1 do in these assays?
ClpP mod: 0%; A549 tox: -1%; Nrf2 activator: 0%; miR-21 FLuc: -4%

What do the screens show for `O=C(Nc1ccccc1C(=O)Nc1nnc(C(F)(F)F)s1)c1ccccc1`?
Nrf2 inh: inconclusive; TCR activator: 2%; A549 tox: 13µM*; Nrf2 activator: 0%; miR-21 FLuc: 0%

What do the screens show for `CCOC(=O)c1cccc(NC(=O)c2cc3cc4ccc(C)cc4nc3o2)c1`?
Nrf2 inh: 1%; ClpP mod: 3%; A549 tox: 6%; Nrf2 activator: 0%; miR-21 FLuc: -8%

What do the screens show for `O=C(C[n+]1cc2ccccc2c2ccccc21)c1ccccc1`?
Nrf2 inh: -26%; ClpP mod: 25µM*; TCR activator: 1%; A549 tox: -7%; Nrf2 activator: 6%; miR-21 FLuc: 18%

2 records picked at random from the list so far, as already listed:
What do the screens show for `O=C(C[n+]1cc2ccccc2c2ccccc21)c1ccccc1`?
Nrf2 inh: -26%; ClpP mod: 25µM*; TCR activator: 1%; A549 tox: -7%; Nrf2 activator: 6%; miR-21 FLuc: 18%

What do the screens show for `CCOc1nc(-c2ccncc2)nc2ccccc12`?
Nrf2 inh: 3%; ClpP mod: 0%; TCR activator: -2%[46.1 µM]; A549 tox: -7%; Nrf2 activator: 0%; miR-21 FLuc: -11%
